# Results published in patent EP0422215B1, “ANTIBACTERIAL AND AN[…]” (THE ROCKEFELLER UNIVERSITY, priority 1989, dated 1990).
# Test system: Sheep Red Cells
# Test: lysis of sheep red blood cells (lysis assay or inhibition zone plate assay with SRC)
# Format: cell-based
# Details: stated in running text
# Method: These values were obtained by either the lysis assay normally used for melittin or by an adaptation of the antibacterial inhibition zone assay of the above-cited Hultmark et al. articles to plates with sheep red cells (SRC). With respect to the latter, sterile agarose plates contained 6 ml of medium with 1% agarose, 0.9% NaCl and 10% SRC suspended in Alsevers solution. A dilution series of peptide was applied in 3mm wells each loaded with 3 µl of the respective samples. The plates were incubated at 30°C for 24 h, the zones were recorded and LC values calculated as described in the Hultmark et al. articles. Clear zones were recorded after a few hours of incubation and the use of such data gave an LC value of the same order as readings after 24 h. This plate assay is faster and more convenient than the lysis assay normally used for melittin.
smiles,measurement,value
"CC[C@H](C)[C@H](NC(=O)CN)C(=O)NCC(=O)N[C@@H](C)C(=O)N[C@H](C(=O)N[C@@H](CC(C)C)C(=O)N[C@@H](CCCCN)C(=O)N[C@H](C(=O)N[C@@H](CC(C)C)C(=O)N[C@H](C(=O)N[C@H](C(=O)NCC(=O)N[C@@H](CC(C)C)C(=O)N1CCC[C@H]1C(=O)N[C@@H](C)C(=O)N[C@@H](CC(C)C)C(=O)N[C@H](C(=O)N[C@@H](CO)C(=O)N[C@@H](Cc1c[nH]c2ccccc12)C(=O)N[C@H](C(=O)N[C@@H](CCCCN)C(=O)N[C@@H](CCCNC(=N)N)C(=O)N[C@@H](CCCCN)C(=O)N[C@@H](CCCNC(=N)N)C(=O)N[C@@H](CCC(N)=O)C(=O)N[C@@H](CCC(N)=O)C(N)=O)[C@@H](C)CC)[C@@H](C)CC)[C@@H](C)O)[C@@H](C)O)C(C)C)C(C)C [M(1-26), reference compound]",concentration lytic to sheep red blood cells,4 to 6 µM
